Data from patent US9433616B2, “Methods and compositions for decreasing saliva production” (priority 2005, dated 2016).

Tested on: Parkinson's Disease (PD) patients suffering from sialorrhea
Conditions: human, in vivo
Excerpt: They were instructed to apply the drops to their tongues on an as needed basis.

**Q.** Which “patient-reported usefulness of treatment” value does the source give for CCN(Cc1ccncc1)C(=O)C(CO)c1ccccc1 (stereo not shown) [tropicamide, N-ethyl-N-(4-pyridylmethyl) tropamide] here?
**A.** treatment was useful
